The target in this assay is WecA (Escherichia coli, UniProt P0AC78). The note with it: read-out: IC50 WecA.

By UniProt entry, the sequences of proteins in these tests, tags left out. Where a name states a change or a piece, a line headed by the entry shows the natural chain unless it says otherwise.
UniProt P0AC78: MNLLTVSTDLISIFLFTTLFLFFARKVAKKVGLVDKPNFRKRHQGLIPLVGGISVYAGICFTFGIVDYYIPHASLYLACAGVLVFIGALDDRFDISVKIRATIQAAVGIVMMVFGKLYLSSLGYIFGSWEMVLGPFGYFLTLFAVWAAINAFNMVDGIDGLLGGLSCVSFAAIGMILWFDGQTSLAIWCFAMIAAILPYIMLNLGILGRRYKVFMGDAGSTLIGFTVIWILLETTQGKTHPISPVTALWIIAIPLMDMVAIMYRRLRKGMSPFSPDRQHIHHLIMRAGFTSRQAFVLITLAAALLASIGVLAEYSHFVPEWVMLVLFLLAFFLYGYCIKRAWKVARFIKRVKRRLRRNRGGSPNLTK

As usually defined, the IC50 is the concentration at which inhibition is half-maximal.

Take `CC(=O)N[C@H]1[C@@H](O[C@@H]2O[C@H](C[C@@H](O)[C@H]3O[C@@H](n4ccc(=O)[nH]c4=O)[C@H](O)[C@@H]3O)[C@H](O)[C@H](O)[C@H]2NC(=O)/C=C/CCCCCCCCCC(C)C)O[C@H](CO)[C@@H](O)[C@@H]1O` [TN-V (1, synthetic), tunicamycin V]: the IC50 was 150 nM.
In the case of `CC(=O)N[C@H]1[C@@H](O[C@@H]2O[C@H](C[C@@H](O)[C@H]3O[C@@H](n4ccc(=O)[nH]c4=O)[C@H](O)[C@@H]3O)[C@H](O)[C@H](O)[C@H]2NC(=O)/C=C/CCCCCCCCCC(C)C)O[C@H](CO)[C@@H](O)[C@@H]1O` [TN-V (natural), tunicamycin V, reference compound] it was 150 nM.

(Values after article PMC9329268 (Angewandte Chemie (International ed. in English), 2022).)
